pIC50: −log10 of the molar value.
System: H1975
Test: Proliferation Assays (NSCLC cell line sensitivity)
Type: cell-based
Conditions: Homo sapiens, NCI-H1975, ACA, KRAS WT, EGFR L858R, T790M

pIC50: < 5.00
SMILES: C#Cc1cccc(Nc2ncnc3cc(OCCOC)c(OCCOC)cc23)c1 [Erlotinib, erlotinib]

Source: patent publication US9375443B2 (Signal Pharmaceuticals, LLC, priority 2012, dated 2016)
